{
  "source": "ChEMBL document CHEMBL3352078",
  "about": "“Repurposing human PDE4 inhibitors for neglected tropical diseases: design, synthesis and evaluation of cilomilast analogues as Trypanosoma brucei PDEB1 inhibitors” (Bioorg Med Chem Lett, 2014)",
  "target": "T1, Class 1 phosphodiesterase PDEB1 (Trypanosoma brucei, UniProt Q8WQX9)",
  "T1 sequence (Q8WQX9 whole entry)": "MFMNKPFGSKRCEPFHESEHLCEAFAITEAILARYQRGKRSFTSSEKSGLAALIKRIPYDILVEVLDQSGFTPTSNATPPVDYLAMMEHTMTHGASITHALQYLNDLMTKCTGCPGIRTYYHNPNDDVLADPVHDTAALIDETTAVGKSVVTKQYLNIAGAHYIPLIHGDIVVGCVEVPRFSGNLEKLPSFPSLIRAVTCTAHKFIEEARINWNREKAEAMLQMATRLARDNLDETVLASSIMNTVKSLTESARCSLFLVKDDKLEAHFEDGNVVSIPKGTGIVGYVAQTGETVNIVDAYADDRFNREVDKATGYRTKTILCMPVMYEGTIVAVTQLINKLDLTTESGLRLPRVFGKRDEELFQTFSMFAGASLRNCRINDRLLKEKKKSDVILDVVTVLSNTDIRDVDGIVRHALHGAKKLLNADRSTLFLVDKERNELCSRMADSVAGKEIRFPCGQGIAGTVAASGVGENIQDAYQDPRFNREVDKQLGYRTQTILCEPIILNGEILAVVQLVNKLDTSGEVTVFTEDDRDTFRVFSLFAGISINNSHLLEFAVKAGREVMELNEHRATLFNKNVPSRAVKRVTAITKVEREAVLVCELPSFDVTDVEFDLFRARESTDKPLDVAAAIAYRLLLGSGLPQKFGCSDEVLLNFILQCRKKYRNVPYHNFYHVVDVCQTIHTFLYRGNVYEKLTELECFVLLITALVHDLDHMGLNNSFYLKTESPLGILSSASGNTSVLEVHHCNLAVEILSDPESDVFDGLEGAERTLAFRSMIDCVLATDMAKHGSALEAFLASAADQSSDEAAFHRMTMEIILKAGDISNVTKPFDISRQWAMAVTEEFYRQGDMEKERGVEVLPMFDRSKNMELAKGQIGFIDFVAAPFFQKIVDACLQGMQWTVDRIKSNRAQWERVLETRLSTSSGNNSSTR",
  "assay": "Inhibition of Trypanosoma brucei recombinant PDEB1 pre-incubated for 5 mins prior to substrate addition",
  "data": [
    {"smiles": "COc1ccc([C@]2(C#N)CC[C@@H](C(=O)O)CC2)cc1OCCCCOc1ccccc1", "values": [
      {"measurement": "IC50", "value": 950, "unit": "nM"}
    ]}
  ]
}
